Reference: patent US20170007615A1, “Antibacterial Compounds” (priority 2014, published 2017)

Tested on: E. coli (NDM-1; CTX-M15)
Experiment: Septicaemia infection model, survival

CCNC(=O)Nc1nc2cc(-c3cnc([C@@H](C)OP(=O)(O)O)nc3)cc(-c3ccccn3)c2s1 [Example 152 of WO2013/138860, [(1R)-1-[5-[2-(ethylcarbamoylamino)-7-(2-pyridyl)-1,3-benzothiazol-5-yl]pyrimidin-2-yl]ethyl] dihydrogen phosphate]
mice survived at the end of 5 days (one dose (1 hour post infection): 100 mg/kg IV plus PMBN 50 mg/kg SC): 20%
mice survived at the end of 5 days (two doses (1 and 3 hours post infection): 100 mg/kg IV plus PMBN 50 mg/kg SC): 80%
